Assays:
[1] = target: T1, ALK tyrosine kinase receptor (Homo sapiens, UniProt Q9UM73); test: Inhibition of NPM-ALK phosphorylation in human SUP-M2 cells after 2 to 3 hrs by ELISA; format: cell-based
[2] = target: T2, Focal adhesion kinase 1 (Homo sapiens, UniProt Q05397); test: Inhibition of human FAK expressed in baculovirus after 30 mins using biotinyl-amino-hexanoyl-EQEDEPEGDYFEWLE-amide as substrate by TRF assay
[3] = target: T1, ALK tyrosine kinase receptor; test: Inhibition of human ALK expressed in baculovirus using recombinant GST PLC-gamma as substrate assessed as phosphorylation of the substrate after 15 mins by TRF assay
[4] = target: T2, Focal adhesion kinase 1; test: Inhibition of FAK phosphorylation in human HCC827 cells after 2 to […] by immunoblot analysis; format: cell-based
[5] = target: ALK tyrosine kinase receptor (Homo sapiens, UniProt Q9UM73, C1156Y); test: Binding affinity to human ALK (1088 to 1409 residues) C1156Y mutant expressed in mammalian system by KINOMEscan assay
[6] = target: T1, ALK tyrosine kinase receptor; test: Inhibition of EML4-ALK tyrosine phosphorylation in human NCI-H3122 cells; format: cell-based
[7] = target: T1, ALK tyrosine kinase receptor; test: Inhibition of EML4-ALK tyrosine phosphorylation in human NCI-H2228 cells; format: cell-based
[8] = target: ALK tyrosine kinase receptor (Homo sapiens, UniProt Q9UM73, F1174L); test: Binding affinity to human ALK (1088 to 1409 residues) F1174L mutant expressed in mammalian system by KINOMEscan assay
[9] = target: T1, ALK tyrosine kinase receptor; test: Binding affinity to human ALK (1088 to 1409 residues) expressed in mammalian system by KINOMEscan assay
[10] = target: ALK tyrosine kinase receptor (Homo sapiens, UniProt Q9UM73, L1196M); test: Binding affinity to human ALK (1088 to 1409 residues) L1196M mutant expressed in mammalian system by KINOMEscan assay

Sequences of proteins named here, by UniProt entry; tags and fusion partners are left off. Residues count along the entry.
UniProt Q9UM73, 19-1620 limits assumed: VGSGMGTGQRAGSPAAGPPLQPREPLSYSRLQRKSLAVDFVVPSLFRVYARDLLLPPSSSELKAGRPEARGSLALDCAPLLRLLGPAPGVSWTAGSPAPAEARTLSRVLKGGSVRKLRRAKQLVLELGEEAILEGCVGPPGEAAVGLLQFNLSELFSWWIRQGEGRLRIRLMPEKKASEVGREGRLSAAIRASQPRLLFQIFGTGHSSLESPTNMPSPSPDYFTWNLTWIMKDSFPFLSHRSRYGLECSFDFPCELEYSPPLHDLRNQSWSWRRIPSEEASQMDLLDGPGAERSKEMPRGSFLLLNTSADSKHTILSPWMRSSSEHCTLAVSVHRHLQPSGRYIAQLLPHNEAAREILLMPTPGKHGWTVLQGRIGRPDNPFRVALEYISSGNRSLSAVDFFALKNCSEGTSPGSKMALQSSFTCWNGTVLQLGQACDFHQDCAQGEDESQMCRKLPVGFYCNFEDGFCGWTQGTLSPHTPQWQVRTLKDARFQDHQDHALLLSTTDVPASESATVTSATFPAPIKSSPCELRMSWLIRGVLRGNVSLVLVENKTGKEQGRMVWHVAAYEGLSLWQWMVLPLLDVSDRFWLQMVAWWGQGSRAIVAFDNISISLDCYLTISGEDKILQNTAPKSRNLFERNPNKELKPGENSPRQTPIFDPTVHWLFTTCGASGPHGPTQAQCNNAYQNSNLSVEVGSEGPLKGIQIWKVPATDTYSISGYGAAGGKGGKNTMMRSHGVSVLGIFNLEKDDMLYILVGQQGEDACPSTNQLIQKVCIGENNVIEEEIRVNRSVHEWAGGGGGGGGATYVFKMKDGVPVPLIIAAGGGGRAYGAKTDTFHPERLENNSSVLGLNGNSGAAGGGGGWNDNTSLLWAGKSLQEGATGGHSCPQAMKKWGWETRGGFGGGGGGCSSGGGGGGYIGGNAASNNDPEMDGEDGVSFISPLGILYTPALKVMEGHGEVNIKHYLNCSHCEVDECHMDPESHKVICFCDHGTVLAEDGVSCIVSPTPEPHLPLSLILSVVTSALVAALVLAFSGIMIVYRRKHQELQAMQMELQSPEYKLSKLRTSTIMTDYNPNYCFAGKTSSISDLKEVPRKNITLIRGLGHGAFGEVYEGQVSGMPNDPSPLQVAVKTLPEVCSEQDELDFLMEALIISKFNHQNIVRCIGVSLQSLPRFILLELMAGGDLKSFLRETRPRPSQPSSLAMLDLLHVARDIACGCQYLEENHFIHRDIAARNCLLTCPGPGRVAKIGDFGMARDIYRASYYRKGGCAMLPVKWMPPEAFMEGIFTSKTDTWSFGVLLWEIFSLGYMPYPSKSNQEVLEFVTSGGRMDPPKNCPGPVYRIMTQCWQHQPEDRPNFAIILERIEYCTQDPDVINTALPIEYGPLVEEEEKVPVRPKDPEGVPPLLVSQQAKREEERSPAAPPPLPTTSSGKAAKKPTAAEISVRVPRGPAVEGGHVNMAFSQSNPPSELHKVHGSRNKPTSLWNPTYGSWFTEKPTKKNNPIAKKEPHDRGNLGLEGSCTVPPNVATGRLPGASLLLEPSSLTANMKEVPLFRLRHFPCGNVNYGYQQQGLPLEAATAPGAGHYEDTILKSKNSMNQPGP
UniProt Q9UM73, 19-1620 C1156Y limits assumed: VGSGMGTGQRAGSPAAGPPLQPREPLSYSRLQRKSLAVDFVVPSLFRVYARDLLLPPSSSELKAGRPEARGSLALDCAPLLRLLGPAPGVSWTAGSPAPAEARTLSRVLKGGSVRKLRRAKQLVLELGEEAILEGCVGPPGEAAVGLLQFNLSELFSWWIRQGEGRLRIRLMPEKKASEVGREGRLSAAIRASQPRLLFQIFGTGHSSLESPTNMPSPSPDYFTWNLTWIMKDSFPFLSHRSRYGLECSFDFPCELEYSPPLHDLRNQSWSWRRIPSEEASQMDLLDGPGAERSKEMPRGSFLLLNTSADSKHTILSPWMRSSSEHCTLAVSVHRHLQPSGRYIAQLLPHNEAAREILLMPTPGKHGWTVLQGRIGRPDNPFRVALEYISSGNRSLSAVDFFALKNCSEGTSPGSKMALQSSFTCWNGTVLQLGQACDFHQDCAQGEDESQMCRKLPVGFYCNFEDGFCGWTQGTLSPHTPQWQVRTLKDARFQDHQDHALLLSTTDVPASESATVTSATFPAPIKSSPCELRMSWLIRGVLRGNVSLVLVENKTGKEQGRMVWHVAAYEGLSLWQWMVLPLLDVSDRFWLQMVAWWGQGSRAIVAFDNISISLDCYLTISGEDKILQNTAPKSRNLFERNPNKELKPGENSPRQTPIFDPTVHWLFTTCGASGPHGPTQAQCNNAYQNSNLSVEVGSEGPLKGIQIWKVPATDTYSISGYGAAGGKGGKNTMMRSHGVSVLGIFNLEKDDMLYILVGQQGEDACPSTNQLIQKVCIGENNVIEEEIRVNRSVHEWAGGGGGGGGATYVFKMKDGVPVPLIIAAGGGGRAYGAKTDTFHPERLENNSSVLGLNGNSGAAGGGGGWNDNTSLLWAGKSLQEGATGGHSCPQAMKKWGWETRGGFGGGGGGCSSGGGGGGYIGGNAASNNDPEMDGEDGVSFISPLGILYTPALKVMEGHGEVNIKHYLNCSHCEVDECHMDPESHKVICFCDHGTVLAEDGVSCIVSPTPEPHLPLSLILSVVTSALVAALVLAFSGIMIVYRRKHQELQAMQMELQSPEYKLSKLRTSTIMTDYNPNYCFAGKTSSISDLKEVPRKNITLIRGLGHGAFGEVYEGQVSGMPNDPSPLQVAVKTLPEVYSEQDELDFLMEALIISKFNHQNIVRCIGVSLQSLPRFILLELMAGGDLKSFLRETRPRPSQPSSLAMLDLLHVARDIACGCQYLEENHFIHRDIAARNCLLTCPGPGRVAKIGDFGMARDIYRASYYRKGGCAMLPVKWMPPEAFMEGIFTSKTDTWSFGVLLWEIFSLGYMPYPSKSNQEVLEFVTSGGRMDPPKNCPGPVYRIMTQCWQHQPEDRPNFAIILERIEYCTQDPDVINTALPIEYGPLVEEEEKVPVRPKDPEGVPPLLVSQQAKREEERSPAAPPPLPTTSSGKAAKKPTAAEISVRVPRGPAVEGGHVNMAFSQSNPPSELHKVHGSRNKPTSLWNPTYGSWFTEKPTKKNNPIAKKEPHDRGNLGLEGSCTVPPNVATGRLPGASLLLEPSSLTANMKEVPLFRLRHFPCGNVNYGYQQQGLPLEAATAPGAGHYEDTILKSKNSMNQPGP
UniProt Q9UM73, 19-1620 F1174L limits assumed: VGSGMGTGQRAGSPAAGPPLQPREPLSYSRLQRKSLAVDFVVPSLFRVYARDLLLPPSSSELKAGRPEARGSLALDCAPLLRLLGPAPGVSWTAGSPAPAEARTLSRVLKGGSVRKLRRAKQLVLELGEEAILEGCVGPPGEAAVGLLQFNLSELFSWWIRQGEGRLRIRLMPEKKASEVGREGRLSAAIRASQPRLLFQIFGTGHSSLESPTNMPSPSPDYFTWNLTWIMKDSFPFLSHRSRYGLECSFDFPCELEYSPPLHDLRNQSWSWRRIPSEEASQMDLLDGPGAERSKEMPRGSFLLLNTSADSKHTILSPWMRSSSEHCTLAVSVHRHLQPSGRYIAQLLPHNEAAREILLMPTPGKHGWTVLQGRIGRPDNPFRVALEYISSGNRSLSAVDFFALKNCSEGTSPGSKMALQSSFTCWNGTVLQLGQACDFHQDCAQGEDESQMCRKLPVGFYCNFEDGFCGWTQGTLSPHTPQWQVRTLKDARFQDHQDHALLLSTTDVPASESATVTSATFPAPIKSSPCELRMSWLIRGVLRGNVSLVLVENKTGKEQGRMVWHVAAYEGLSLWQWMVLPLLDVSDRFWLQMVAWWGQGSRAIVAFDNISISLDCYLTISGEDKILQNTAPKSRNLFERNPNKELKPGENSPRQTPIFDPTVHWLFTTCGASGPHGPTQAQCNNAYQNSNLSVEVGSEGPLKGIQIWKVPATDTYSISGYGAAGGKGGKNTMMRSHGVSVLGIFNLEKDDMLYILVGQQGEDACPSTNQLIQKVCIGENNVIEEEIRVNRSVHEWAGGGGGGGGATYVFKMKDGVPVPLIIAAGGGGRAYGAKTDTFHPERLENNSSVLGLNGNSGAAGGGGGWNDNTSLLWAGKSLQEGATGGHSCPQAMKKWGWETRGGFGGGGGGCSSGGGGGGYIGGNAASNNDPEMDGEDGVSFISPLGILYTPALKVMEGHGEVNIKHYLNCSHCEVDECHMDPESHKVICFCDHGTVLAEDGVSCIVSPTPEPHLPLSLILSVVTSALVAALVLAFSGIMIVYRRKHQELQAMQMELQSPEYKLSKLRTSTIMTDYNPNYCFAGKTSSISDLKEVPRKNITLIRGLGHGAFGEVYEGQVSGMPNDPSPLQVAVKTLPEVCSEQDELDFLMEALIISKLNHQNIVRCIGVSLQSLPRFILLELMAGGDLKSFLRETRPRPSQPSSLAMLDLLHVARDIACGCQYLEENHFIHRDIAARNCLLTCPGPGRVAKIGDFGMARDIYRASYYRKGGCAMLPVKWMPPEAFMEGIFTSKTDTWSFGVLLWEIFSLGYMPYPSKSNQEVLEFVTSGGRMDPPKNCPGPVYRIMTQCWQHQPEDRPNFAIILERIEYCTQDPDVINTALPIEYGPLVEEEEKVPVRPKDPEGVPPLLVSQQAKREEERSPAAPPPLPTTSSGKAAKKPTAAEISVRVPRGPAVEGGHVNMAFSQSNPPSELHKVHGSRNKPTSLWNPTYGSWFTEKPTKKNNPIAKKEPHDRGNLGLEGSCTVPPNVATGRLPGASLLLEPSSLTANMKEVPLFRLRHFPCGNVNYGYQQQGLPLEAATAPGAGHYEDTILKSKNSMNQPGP
UniProt Q9UM73, 19-1620 L1196M limits assumed: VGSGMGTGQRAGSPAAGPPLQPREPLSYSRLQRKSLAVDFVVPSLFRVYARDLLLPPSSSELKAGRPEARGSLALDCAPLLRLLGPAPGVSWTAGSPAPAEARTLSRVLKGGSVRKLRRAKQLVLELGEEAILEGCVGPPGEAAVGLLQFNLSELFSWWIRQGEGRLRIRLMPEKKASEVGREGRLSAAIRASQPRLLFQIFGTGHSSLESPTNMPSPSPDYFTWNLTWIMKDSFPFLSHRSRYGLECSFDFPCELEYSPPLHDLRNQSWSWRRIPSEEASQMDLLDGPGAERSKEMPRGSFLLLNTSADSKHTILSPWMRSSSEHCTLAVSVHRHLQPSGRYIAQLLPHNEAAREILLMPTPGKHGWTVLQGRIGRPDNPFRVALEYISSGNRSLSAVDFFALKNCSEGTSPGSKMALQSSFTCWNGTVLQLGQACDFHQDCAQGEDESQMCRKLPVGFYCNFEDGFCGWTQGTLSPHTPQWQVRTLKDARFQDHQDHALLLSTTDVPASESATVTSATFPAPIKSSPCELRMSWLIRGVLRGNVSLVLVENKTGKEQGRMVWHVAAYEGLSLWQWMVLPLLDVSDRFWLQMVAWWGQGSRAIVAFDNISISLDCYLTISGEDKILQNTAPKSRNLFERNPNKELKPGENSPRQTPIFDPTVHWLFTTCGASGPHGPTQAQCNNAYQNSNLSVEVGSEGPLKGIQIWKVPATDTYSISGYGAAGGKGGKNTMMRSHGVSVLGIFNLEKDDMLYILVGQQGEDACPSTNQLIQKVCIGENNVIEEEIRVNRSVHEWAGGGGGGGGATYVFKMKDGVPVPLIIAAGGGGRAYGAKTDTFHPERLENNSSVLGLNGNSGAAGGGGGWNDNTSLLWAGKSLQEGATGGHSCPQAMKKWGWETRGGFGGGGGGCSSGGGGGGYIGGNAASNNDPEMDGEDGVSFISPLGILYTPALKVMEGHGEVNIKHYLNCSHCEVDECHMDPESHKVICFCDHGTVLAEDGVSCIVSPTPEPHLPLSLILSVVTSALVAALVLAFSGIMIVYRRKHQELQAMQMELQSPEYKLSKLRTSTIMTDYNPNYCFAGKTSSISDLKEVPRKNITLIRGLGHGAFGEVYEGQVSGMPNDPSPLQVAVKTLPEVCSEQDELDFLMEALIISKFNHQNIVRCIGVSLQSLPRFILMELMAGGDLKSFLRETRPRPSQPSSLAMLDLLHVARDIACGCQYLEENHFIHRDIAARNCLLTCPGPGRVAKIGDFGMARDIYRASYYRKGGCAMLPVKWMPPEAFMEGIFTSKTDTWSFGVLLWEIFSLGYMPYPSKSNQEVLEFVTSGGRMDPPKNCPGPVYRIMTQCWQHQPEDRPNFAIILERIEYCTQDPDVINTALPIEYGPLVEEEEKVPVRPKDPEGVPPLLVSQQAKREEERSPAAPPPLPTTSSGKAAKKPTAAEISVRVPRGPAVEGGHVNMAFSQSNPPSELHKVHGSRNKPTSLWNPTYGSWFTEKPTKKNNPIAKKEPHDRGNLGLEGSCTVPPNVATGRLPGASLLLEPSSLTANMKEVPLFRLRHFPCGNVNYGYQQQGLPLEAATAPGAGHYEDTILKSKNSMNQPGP

Structure (SMILES)	IC50 [1] [nM]	IC50 [2] [nM]	IC50 [3] [nM]	IC50 [4] [nM]	Kd [5] [nM]	IC50 [6] [nM]	IC50 [7] [nM]	Kd [8] [nM]	Kd [9] [nM]	Kd [10] [nM]
CNC(=O)c1ccccc1Nc1nc(Nc2ccc3c(c2OC)CCC[C@@H](N2CCN(CCO)CC2)C3)ncc1Cl	50	1	5.7							
CNC(=O)c1ccccc1Nc1nc(Nc2ccc3c(c2OC)CCCC(N2CCN(CCO)CC2)C3)ncc1Cl (racemic)	40	3.1	3.4							
CNC(=O)c1ccccc1Nc1nc(Nc2ccc3c(c2OC)CCC[C@H](N2CCN(CCO)CC2)C3)ncc1Cl [CEP-37440]	22	2	3.1	80 to 357	1.6	85	175	1.1	2.3 to 3.6	3.3
